Literature values as cited in patent US6383762B1, “Methods of obtaining compounds that interact with a human serotonin (5-HT2) receptor” (Synaptic Pharmaceutical Corporation, priority 1989, dated 2002).

Chains of the proteins cited; added tags and fusions are not shown.
UniProt P14842, whole entry: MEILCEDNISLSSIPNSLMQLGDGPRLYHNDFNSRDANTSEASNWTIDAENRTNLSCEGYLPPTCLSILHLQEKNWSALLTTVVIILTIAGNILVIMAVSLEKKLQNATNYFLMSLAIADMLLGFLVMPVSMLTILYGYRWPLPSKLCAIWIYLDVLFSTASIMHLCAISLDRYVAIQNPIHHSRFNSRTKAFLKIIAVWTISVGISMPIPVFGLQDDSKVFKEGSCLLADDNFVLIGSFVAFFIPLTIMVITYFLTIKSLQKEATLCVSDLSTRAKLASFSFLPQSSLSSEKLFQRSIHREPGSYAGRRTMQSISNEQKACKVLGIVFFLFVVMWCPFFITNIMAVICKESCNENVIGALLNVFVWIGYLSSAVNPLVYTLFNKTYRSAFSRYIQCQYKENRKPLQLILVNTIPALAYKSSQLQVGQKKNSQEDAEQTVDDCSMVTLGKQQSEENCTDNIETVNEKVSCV

Molecular target: T1, 5-HT2 receptor in rat cortical membranes (Rattus norvegicus, UniProt P14842)
T1 construct: rather than in rat cortical membranes; host or cells: rat cortical membranes
Conditions: rat cortex; Hoyer et al. 1986; cited from earlier work

In the case of Cc1nc2sccn2c(=O)c1CCN1CCC(=C(c2ccc(F)cc2)c2ccc(F)cc2)CC1 [RITANSERIN], the Ki is listed as 7.2 nM.
